# Results published in patent US11147816B2, “Composition for inducing differentiation and protection of neural stem cells and method for inducing neuro-regeneration using the same composition” (GENUV Inc., priority 2016, dated 2021).
# Test system: mouse adult neural stem cells
# Settings: 10 μM amyloid-beta; each at its optimal concentration (AS703026 10, AZD8330 1, PD318088 1, binimetinib 10, refametinib 1, PD0325901 10, RO5126766 10 μM); day 2
smiles,measurement,value
O=C(NOC[C@H](O)CO)c1ccc(F)c(F)c1Nc1ccc(I)cc1F [PD0325901],cell protection and NSC differentiation under amyloid-beta cytotoxicity,provided cell protection and induced the differentiation of NSC
